Test results: PubChem BioAssay AID687016 (The Scripps Research Institute Molecular Screening Center, 2013)
This is a selection; strong and weak results do not stand in their true shares. Active and inactive are the calls of the source. Cut-off read from the data, not from the text of the source: active = inhibition above about 21%; inactive = the rest.

The chains behind the UniProt entries cited, without tags or fusion partners. Where a name states a change or a piece, a line headed by the entry shows the natural chain unless it says otherwise.
UniProt Q96T88: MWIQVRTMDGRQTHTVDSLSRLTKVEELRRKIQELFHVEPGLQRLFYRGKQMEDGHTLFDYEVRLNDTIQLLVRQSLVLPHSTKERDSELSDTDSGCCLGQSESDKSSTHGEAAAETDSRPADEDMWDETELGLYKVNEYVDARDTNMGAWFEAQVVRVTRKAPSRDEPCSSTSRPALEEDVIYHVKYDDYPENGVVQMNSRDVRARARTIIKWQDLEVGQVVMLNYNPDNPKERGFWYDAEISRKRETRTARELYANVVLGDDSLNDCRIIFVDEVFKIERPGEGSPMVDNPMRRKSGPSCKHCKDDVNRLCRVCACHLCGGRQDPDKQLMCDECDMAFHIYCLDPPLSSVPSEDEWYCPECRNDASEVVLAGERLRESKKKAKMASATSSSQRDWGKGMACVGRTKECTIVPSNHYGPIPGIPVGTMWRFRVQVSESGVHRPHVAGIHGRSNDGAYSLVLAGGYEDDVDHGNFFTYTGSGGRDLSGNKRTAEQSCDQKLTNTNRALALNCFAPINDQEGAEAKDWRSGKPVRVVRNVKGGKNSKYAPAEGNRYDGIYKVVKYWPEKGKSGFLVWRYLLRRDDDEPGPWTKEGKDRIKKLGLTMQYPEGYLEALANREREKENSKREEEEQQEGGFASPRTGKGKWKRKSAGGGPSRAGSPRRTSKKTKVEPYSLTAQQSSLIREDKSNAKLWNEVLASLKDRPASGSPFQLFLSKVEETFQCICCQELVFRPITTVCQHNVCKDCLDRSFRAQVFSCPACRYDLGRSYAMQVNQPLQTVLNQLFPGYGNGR

Target: E3 ubiquitin-protein ligase UHRF1 (Homo sapiens) (UniProt Q96T88)
Test: UHRF1 methylated DNA binding inhibitors, primary screen, counter-screen for MBD2 inhibitor project, biochemical, TR-FRET, human UHRF1, single concentration (AID 687016);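 note: UHRF1 SRA domain binding a hemimethylated CpG hairpin DNA probe; 0% = median of test compound wells and 100% = reference inhibitor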
Settings: UHRF1 binding to methylated oligo, at 4.4 µM, active compounds read high

Structure (SMILES) | inhibition
COc1ccccc1OP(=O)(Nc1ccc(C)cn1)Oc1ccccc1OC | inactive: 2.78%
CCN(/C(=N/P(=O)(N1CCOCC1)N1CCOCC1)N1CCOCC1)c1ccc(OC)cc1 | inactive: -2.79%
C[N+]1=C2C=CC=CC=C2SC12C([N+](=O)[O-])=CC([N+](=O)[O-])=C[C-]2[N+](=O)[O-] (centres undefined) | inactive: -4.89%
Nc1ccc([As](=O)(O)c2ccc(N)cc2)cc1 | inactive: 0.15%
c1cc(-c2nn[nH]n2)ccc1-c1nn[nH]n1 | inactive: 0.1%
CC1CCN(C(=O)Oc2c(Cl)cc(Cl)c3cccnc23)CC1 | inactive: -1.36%
CN(C)C(=O)OCCc1n(C)cc[n+]1C | inactive: -1.42%
CC(C)=N/N=C(\N)N[N+](=O)[O-] | inactive: -0.56%
CC(C)c1nc(Nc2ccccc2)n(P(=O)(N(C)C)N(C)C)n1 | inactive: 2.8%
COc1ccc(C2=NCC(CBr)S2)cc1 (centres undefined) | inactive: 3.18%
O=[N+]([O-])c1cc([N+](=O)[O-])c(CCNc2ccccc2)c([N+](=O)[O-])c1 | inactive: -2.75%
CCc1nc2c(n1)c1c(non1O)c1c2no[n+]1[O-] | inactive: -12.9%
Cc1ccc(NP(=O)(Oc2ccccc2)Oc2ccccc2)nc1 | inactive: 5.66%
CC(=O)N1C2C3N(C(C)=O)C1C1N(C(C)=O)C(C(N1C(C)=O)N3C(C)=O)N2C(C)=O | inactive: 1.96%
O=[N+]([O-])c1ncn(CCn2ncnc2[N+](=O)[O-])n1 | inactive: 0.48%
CC(C)(C)C(=O)NC(Sc1ccncn1)C(Cl)(Cl)Cl (centres undefined) | inactive: 3.01%
O=C(O)CNc1ccc([As](=O)(O)O)cc1 | inactive: 1.86%
O=[N+]([O-])c1cccc(NC2=NCC(CBr)S2)c1 (centres undefined) | inactive: 6.8%
COC(=O)C1(C)COP(=O)(Nc2ccccc2)OC1 (centres undefined) | inactive: 0.61%
O=P1(N(CCCl)CCCl)OCCCS1 (centres undefined) | inactive: -1.39%
O=C(Nc1cc([As](=O)(O)O)ccc1O)c1ccccc1 | inactive: -0.61%
CCOC(=O)Nc1cccc([As](=O)(O)O)c1 | inactive: -1.54%
Cc1cc(SC(NC=O)C(Cl)(Cl)Cl)ncn1 (centres undefined) | inactive: 0.19%
O=P(Nc1ccccn1)(c1cccc2ccccc12)c1cccc2ccccc12 | inactive: 0.46%
O=[N+]([O-])c1ccc(Nc2ccc(Oc3ccc([N+](=O)[O-])cc3[N+](=O)[O-])cc2)c([N+](=O)[O-])c1 | inactive: 0.14%
O=C(O)C(O)c1ccc(N(CCCl)CCCl)cc1 (centres undefined) | inactive: -1.8%
CCOC(=O)Nc1ccc([As](=O)(O)O)c(O)c1 | inactive: 5.42%

Structure (SMILES) | inhibition
CC1CCNP(=O)(N(CCCl)CCCl)O1 (centres undefined) | inactive: 0.14%
COP(=O)(OC)N1CC1c1ccccc1 (centres undefined) | inactive: 1.15%
Cc1cc(SC(NC(=O)c2ccccc2)C(Cl)(Cl)Cl)nc(C(C)C)n1 (centres undefined) | inactive: -7.33%
CCCCOc1ccc(C(=O)NCC2(N3CCCCC3)CCCCC2)cc1OC | inactive: -0.27%
O=C(OC1CN2CCC1CC2)c1cccc([N+](=O)[O-])c1 (centres undefined) | inactive: 1.6%
CCOC(=O)c1ccc(NC(=O)C(C)(CCl)SC)cc1 (centres undefined) | inactive: 0.75%
CCC(C)N(CC(C)C)C(=S)SC(NC(C)=O)C(Cl)(Cl)Cl (centres undefined) | inactive: 1.01%
COC(=O)C1(C)COP(=O)(N2CCCC2)OC1 (centres undefined) | inactive: -0.68%
COP1(=S)c2c(C)nn(CCC#N)c2N=C(c2ccc(F)cc2)N1C (centres undefined) | inactive: -0.25%
O=C(O)C(=O)c1ccc(N(CCCl)CCCl)cc1 | inactive: -2.08%
O=C(Nc1ccncc1[N+](=O)[O-])c1ccc([N+](=O)[O-])cc1[N+](=O)[O-] | inactive: -0.2%
O=C(COc1ccccc1)OC1CN2CCC1CC2 (centres undefined) | inactive: -2.84%
O=[N+]([O-])c1cc(Oc2ccc([N+](=O)[O-])cc2C(F)(F)F)cc([N+](=O)[O-])c1 | inactive: 2.63%
COc1ccc(N/C(=N/P(=O)(N2CCOCC2)N2CCOCC2)N2CCOCC2)cc1 | inactive: 8.31%
Cc1c2c(nc3ccccc13)SC(C(Cl)Cl)C2 (centres undefined) | inactive: -3.35%
Cc1cc(=O)[nH]c(N[N+](=O)[O-])n1 | inactive: -2.04%
O=C(OC1CN2CCC1CC2)C12CC3CC(CC(C3)C1)C2 (centres undefined) | inactive: 2.48%
O=P1(N(CCCl)CCCl)Nc2ccccc2N1 | inactive: -0.54%
O=P1(N(CCCl)CCCl)OCCCN1CCCl (centres undefined) | inactive: 3.13%
COc1cc(I)ccc1[As](=O)(O)O | inactive: 3.87%
COc1ccc2nc(NP(=O)(c3ccccc3)c3ccccc3)sc2c1 | inactive: -0.87%
ClCCSc1nnc(-c2cccnc2)o1 | inactive: -1.27%
CC(C)c1ccc(OP(=O)(Nc2ccccn2)Oc2ccccc2F)cc1 (centres undefined) | inactive: 1.4%
COC(=O)C1(C)COP(=O)(N2CCCCCC2)OC1 (centres undefined) | inactive: 1.37%
O=C(OC1CN2CCC1CC2)c1cccc2[nH]cnc12 (centres undefined) | inactive: 3.28%
CCN(CC)C(=S)SC(NC=O)C(Cl)(Cl)Cl (centres undefined) | inactive: 4.9%
CC(C)NC(=O)NP(=O)(Oc1ccccc1)Oc1ccccc1 | inactive: 1.6%
